Laboratory results as given in BindingDB's records for 15357993.

Target: Carbonic anhydrase (Methanothermobacter thermautotrophicus (strain ATCC 29096 / DSM 1053 / JCM 10044 / NBRC 100330 / Delta H), UniProt Q50565)

## [N-]=[N+]=N
  Ki: 55.7 mM
